Data on one compound can be found in US5514694A, “Peptidyl ketoamides” (Georgia Tech Research Corp, priority 1993, dated 1996).

The chains behind the UniProt entries cited, without tags or fusion partners. Residues count along the entry.
UniProt P08246, 30-267 limits assumed: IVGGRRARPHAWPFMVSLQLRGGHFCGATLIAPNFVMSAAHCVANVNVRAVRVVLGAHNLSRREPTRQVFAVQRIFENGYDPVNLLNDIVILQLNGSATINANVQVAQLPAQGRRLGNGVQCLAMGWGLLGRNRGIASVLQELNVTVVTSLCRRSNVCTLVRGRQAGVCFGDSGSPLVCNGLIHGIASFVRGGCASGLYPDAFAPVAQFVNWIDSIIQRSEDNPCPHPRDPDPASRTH
UniProt P08311, 21-255 limits assumed: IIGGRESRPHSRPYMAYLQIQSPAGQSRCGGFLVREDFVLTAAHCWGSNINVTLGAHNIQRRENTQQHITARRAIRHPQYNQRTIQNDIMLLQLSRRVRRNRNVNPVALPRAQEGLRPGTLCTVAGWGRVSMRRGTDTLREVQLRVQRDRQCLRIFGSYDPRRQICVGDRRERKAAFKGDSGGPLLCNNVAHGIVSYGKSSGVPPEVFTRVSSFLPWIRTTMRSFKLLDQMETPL

The target of experiment [1] is human leukocyte elastase (HLE) (Homo sapiens, UniProt P08246). As to the kind of experiment: HLE inhibition, MeO-Suc-Ala-Ala-Pro-Val-NA hydrolysis. Format: biochemical. Conditions: read-out: IC50 HLE; Table 4, Z-Leu--AA--CONH-R.
Experiment [2] has as its target Human leukocyte cathepsin G (Homo sapiens, UniProt P08311). The experiment is described as follows: Cathepsin G inhibition, Suc-Val-Pro-Phe-NA hydrolysis. Conditions: read-out: IC50 Cat G; Table 4, Z-Leu--AA--CONH-R.

`CCCCCCCCCCNC(=O)C(=O)[C@H](CC)NC(=O)[C@H](CC(C)C)NC(=O)OCc1ccccc1`: the IC50 in experiment [1] came to 47 µM; in experiment [2], 162 µM.
